Laboratory results taken from patent publication US10870627B2, “Salt of quinazoline derivative, preparation method therefor and application thereof” (SHANGHAI PHARMACEUTICALS HOLDING CO., LTD., priority 2016, dated 2020).

Columns and labels:
[1] = Dynamic vapor sorption (DVS), isothermal absorption analysis; format: physicochemical
Protocol: In the present invention, according to the common knowledge in the art, the amount of water absorption obtained from the dynamic vapor sorption (DVS) pattern is expressed in percentage by weight.
The isothermal absorption analysis (DVS) data was collected from TA Instruments Q5000 TGA. The software for instrument control was Thermal Advantage and software for analysis was Universal Analysis. 1-10 mg of the sample was generally placed in a platinum crucible, and the weight change of the sample during the relative humidity changing from 20% to 80% was recorded by the TA software. Depending on the specifics of the sample, different steps of sample adsorption and desorption were also involved.

Solution stability test = format: physicochemical
Protocol: About 15 mg of the sample was weighed accurately, dissolved with 25 mL of the test solvent (10% aqueous acetone solution, pH=4.0 B-R buffer solution, SGF, SIF) via ultrasound for 20 minutes. The solution was divided into four portions and placed in the clear glass vials, followed by sealing. The samples were exposed in different environments and sampled on day 0 and day 5. The purity of each sample was determined by HPLC, and the number of impurities greater than 0.05% was calculated and compared with the samples on day 0. The exposure environments are:
Room temperature and light-proof test, 25° C.; […]
Illumination experiment (4500±500 lx), 25° C.;
Oxidation experiment (3% v/v hydrogen peroxide), 25° C.

[2] = Solid-state stability test; format: physicochemical
Protocol: An appropriate amount of the drugs were placed in the surface dish, spread to a thickness of 3-5 mm, and exposed in high temperature, high temperature and high humidity, illumination and oxidation conditions for 10 days respectively, and the solid-state characterization was performed. The purity and the number of impurities 0.05%) of the samples for testing were determined by HPLC, and compared with the samples on day 0. The exposure conditions are:
High temperature (an oven with T=60° C.);
High temperature and high humidity (40° C., a chamber with constant temperature and 75% relative humidity);
Illumination (25° C., a 4500±500 lx light incubator);
Oxidation (25° C., a closed container containing urea hydrogen peroxide).

[3] = Comparison of absorption in rats after intragastric administration of free base and salt (plasma pharmacokinetics); format: in vivo, SD rats; conditions: oral, same dose, free base and 6 salts
Protocol: The blood sample was centrifuged at 8000 RPM for 5 minutes, followed by the isolation of the upper plasma. […] 200 μL of the supernatant was taken and centrifuged again for 10 minutes. 50 μL of the supernatant was injected in a 96-well plate. The plasma drug concentration was determined by LC/MS/MS, and the corresponding pharmacokinetic parameters were calculated.

[4] = SGF, 5 d, Illumination (4500±500 lx, 25° C.)

## C=C(F)C(=O)Nc1cc2c(Nc3ccc(F)c(Cl)c3)ncnc2cc1OCCCN1CCOCC1.O.O.O.O.O=C(O)C(O)C(O)C(=O)O
[1]
  loss of hydrate water at low relative humidity (DVS), in words: large amounts of water is eliminated rapidly at the relative humidity of 10%

## C=C(F)C(=O)Nc1cc2c(Nc3ccc(F)c(Cl)c3)ncnc2cc1OCCCN1CCOCC1.O=S(=O)(O)c1ccccc1
Solution stability test; 10% aqueous acetone solution, 5 d, High temperature and high humidity
  Purity: 96.8%
Solution stability test; B-R Buffer solution (pH=4.0), 0 d
  Purity: 98.5%
Solution stability test; B-R Buffer solution (pH=4.0), 5 d, Illumination (4500±500 lx, 25° C.)
  Purity: 98.5%
Solution stability test; SGF, 0 d
  Purity: 98.9%
Solution stability test; SGF, 5 d, High temperature
  Purity: 98.8%
Solution stability test; [4]
  Purity: 98.9%
[2]; 0 d
  Purity: 98.5%
[2]; 10 d, High temperature (oven, T=60° C.)
  Purity: 98.5%
[2]; 10 d, High temperature and high humidity (40° C., 75% relative humidity)
  Purity: 98.5%
[2]; 10 d, Illumination (25° C., 4500±500 lx)
  Purity: 98.5%
[2]; 10 d, Oxidation (25° C., closed container with urea hydrogen peroxide)
  Purity: 98.5%
[3]
  absorption, comparison in words: better absorbed

## C=C(F)C(=O)Nc1cc2c(Nc3ccc(F)c(Cl)c3)ncnc2cc1OCCCN1CCOCC1.O=S(=O)(O)CCS(=O)(=O)O
Solution stability test; 10% aqueous acetone solution, 0 d
  Purity: 99.1%
Solution stability test; 10% aqueous acetone solution, 5 d, Illumination (4500±500 lx, 25° C.)
  Purity: 99.1%
Solution stability test; SGF, 5 d, High temperature
  Purity: 98.9%
Solution stability test; [4]
  Purity: 98.9%
Solution stability test; SGF, 5 d, Oxidation (3% v/v hydrogen peroxide, 25° C.)
  Purity: 80.8%

## C=C(F)C(=O)Nc1cc2c(Nc3ccc(F)c(Cl)c3)ncnc2cc1OCCCN1CCOCC1.O=S(=O)(O)O
[3]
  absorption, comparison in words: better absorbed

## C=C(F)C(=O)Nc1cc2c(Nc3ccc(F)c(Cl)c3)ncnc2cc1OCCCN1CCOCC1 [N-[4-(3-chloro-4-fluoroanilino)]-7-(3-morpholinopropoxy)-6-(2-fluoroacrylamido)-quinazoline, reference compound]
[2]; 0 d
  Purity: 99.1%

## C=C(F)C(=O)Nc1cc2c(Nc3ccc(F)c(Cl)c3)ncnc2cc1OCCCN1CCOCC1.O.O.O=C(O)CC(O)(CC(=O)O)C(=O)O [crystal form 7 of the dihydrate]
[1]
  loss of hydrate water at low relative humidity (DVS), in words: one water molecule is eliminated below a relative humidity of 10%

## C=C(F)C(=O)Nc1cc2c(Nc3ccc(F)c(Cl)c3)ncnc2cc1OCCCN1CCOCC1.O.O.O=C(O)CC(O)(CC(=O)O)C(=O)O [crystal form 11 of the dihydrate]
[1]
  loss of hydrate water at low relative humidity (DVS), in words: hydrate water is eliminated below the relative humidity of 50%
